# Test system: HL-7702 normal liver cells
# Assay: CCK8 cell viability assay
# Type: cell-based, human
# Method: Cell viability assay using the CCK8 reagent (Bimake, Shanghai, China) was conducted according to the manufacturer’s instructions. The cell proliferation data were used to calculate the cell viability. Briefly, HepG2, SMMC-7721, and HL-7702 cells with a density of 5 × 10^3 cells/well were seeded into each well of 96-well plates and incubated overnight. BCP stock solution (400 mM) was prepared in ethanol, and DOX and DDP stock solutions (20 mM) were individually prepared in DMSO. […] The dosages of DOX and DDP were previously determined ([Jehan et al., 2020]; [Farooq et al., 2023]). […] After 48 h, 10 µL of CCK8 reagent was added to each well, followed by 2 h incubation at 37°C and measurement of absorbance at 450 nm using a microplate reader (Molecular Devices, LLC.). […] The antiproliferative effects of BCP in combination with DOX and DDP were evaluated by the combination index (CI) using the formula: […] The effects of the combinatorial inhibition were visualized by isobologram analyses ([Tallarida, 2001]). The IC50 values of each cell line were arranged for the isobologram analysis so that the IC50 of DOX represents a point on the X-axis and the IC50 of BCP represents a point on the Y-axis. A line was drawn to link the two IC50 points. Each dot in the isobologram represented an IC50 value of a BCP and DOX combination. The dots above, on, or below the line indicate the “antagonistic,” “additive” and “synergistic” effects, respectively. The same method was used to obtain the CI value for the cotreatment of BCP and DDP.
compound,measurement,setting,value
"COc1cccc2c1C(=O)c1c(O)c3c(c(O)c1C2=O)C[C@@](O)(C(=O)CO)C[C@@H]3O[C@H]1C[C@H](N)[C@H](O)[C@H](C)O1 [DOX, doxorubicin]",combination index (CI),"HL-7702, cotreatment with 25 μM BCP",1.02
same,combination index (CI),"HL-7702, cotreatment with 50 μM BCP",0.98
same,combination index (CI),"HL-7702, cotreatment with 100 μM BCP",1.03
same,combination index (CI),"HL-7702, cotreatment with 150 μM BCP",1.05

# — paper PMC11671526, “β-caryophyllene sensitizes hepatocellular carcinoma cells to chemotherapeutics and inhibits cell malignancy through targeting MAPK signaling pathway” (Frontiers in Pharmacology, 2024)
